For the data set the following is noted: pH 8.

As to `COc1cc(N=Nc2cccc(S(=O)(=O)O)c2)ccc1NC(=O)Nc1ccc(N=Nc2cccc(S(=O)(=O)O)c2)cc1OC` [C.I. Direct Yellow 132], the solubility in water was 50 to 100 mg/mL.

The record behind these values is patent US7771525B2, “Water-soluble azo compound or salt thereof, ink composition and colored product” (Nippon Kayaku Kabushiki Kaisha, priority 2006, dated 2010).
